Laboratory results: patent US6756210B2 (dated 2004)

Amino acid sequences for entries named in this document (tags omitted). A change or cut given only in a name is not applied to a line headed by its entry.
UniProt P80299: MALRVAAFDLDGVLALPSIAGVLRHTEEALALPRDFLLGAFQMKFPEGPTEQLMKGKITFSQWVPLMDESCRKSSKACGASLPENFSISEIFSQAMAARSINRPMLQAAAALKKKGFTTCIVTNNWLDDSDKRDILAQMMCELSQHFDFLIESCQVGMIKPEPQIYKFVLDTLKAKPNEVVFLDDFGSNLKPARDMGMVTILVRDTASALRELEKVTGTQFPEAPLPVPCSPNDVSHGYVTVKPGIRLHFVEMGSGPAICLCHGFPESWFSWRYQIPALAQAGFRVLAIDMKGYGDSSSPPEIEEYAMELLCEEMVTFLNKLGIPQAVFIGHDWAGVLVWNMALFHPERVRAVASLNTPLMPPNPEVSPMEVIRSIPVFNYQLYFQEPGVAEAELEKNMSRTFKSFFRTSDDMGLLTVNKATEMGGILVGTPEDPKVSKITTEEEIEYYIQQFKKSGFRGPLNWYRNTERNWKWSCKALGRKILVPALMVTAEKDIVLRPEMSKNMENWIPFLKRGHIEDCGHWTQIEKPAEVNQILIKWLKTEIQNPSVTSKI
UniProt P34914: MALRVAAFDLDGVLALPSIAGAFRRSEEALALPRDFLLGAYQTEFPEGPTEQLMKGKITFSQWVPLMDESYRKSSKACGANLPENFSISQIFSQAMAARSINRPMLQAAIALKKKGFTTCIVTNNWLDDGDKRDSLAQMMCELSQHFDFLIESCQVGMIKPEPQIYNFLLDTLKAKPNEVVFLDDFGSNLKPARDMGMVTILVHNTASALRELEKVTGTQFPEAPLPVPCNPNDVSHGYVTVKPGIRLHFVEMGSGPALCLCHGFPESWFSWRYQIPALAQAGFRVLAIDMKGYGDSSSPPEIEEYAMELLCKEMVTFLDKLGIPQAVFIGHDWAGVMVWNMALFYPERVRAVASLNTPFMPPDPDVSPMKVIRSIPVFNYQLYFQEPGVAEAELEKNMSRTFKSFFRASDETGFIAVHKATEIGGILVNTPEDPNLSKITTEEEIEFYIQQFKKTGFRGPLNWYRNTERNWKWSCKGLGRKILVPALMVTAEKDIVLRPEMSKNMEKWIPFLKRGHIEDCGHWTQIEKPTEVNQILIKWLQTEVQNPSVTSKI
UniProt P34913, whole entry: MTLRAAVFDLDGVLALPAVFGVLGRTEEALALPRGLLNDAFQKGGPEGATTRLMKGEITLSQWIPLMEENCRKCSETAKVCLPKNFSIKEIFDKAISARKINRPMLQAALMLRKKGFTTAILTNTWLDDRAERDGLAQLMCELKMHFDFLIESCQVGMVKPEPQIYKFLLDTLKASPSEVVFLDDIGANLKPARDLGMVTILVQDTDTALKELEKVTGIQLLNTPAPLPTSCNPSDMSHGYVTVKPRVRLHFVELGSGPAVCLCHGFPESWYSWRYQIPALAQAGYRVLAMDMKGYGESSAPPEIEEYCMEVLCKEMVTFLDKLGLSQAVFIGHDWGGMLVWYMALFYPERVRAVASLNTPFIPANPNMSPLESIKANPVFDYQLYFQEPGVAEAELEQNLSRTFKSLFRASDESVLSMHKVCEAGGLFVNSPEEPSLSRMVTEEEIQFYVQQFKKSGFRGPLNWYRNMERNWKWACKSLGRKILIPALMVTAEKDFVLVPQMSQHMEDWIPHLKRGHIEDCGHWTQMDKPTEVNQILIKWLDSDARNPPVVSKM

Assays:
[1] = molecular target: purified recombinant rat sEH (Rattus norvegicus, UniProt P80299); experiment: biochemical
[2] = molecular target: recombinant mouse sEH (MsEH) (Mus musculus, UniProt P34914); experiment: Inhibition of recombinant mouse sEH (MsEH); type: biochemical
[3] = molecular target: Human sEH (HsEH) (Homo sapiens, UniProt P34913); experiment: Inhibition of recombinant human sEH (HsEH)

SMILES | Ki [1] [nM] | IC50 [2] [nM] | IC50 [3] [nM]
O=C(NC1CCCCC1)NC1CCCCC1 [DCU, N,N′-dicyclohexylurea] | 34 | – | –
O=C(Nc1ccc(I)cc1)NC1CCCCC1 [compound 53] | – | 70 ± 10 | 120 ± 10
O=C(NC1CCCCC1)NC12CC3CC(CC(C3)C1)C2 [compound 192] | – | 50 ± 10 | –
